Like-named read-outs stand apart in the source and are kept apart here.
What was measured:
Assay in all cases: biochemical
HLA-A3.2 (A*0301) = HLA-A3.2 (A*0301) (Homo sapiens, UniProt P04439); assay type: binding
A*6801 = A*6801 (Homo sapiens, UniProt P04439, A269V/D185E/E176V/E277Q/E87N/F33Y/G231S/I121M/I166T/I218V/L180W/L300P/L318F/N151K/P208A/P217A/Q86R/R169H/T345S); assay type: binding
A31 (A*3101) = A31 (A*3101) (Homo sapiens, UniProt P04439, A270S/D185E/E176V/E277Q/F33T/G231S/G80R/H175R/I121M/I218V/I322F/K168Q/L300P/L318F/M331R/P217A/Q94H/R138Q/T323A/T345S/T97I/V358M); assay type: binding
A*3301 = A*3301 (Homo sapiens, UniProt P04439, A270S/D185E/E176V/E277Q/E87N/F33T/G231S/H175R/I121M/I218V/I322F/K168Q/K210R/L300P/L318F/M331R/P217A/Q86R/Q94H/R138Q/T323A/T345S/T97I/V358M/Y195H); assay type: binding
HLA-A11 (A*1101) = HLA-A11 (A*1101) (Homo sapiens, UniProt P04439, A114D/D185E/E176A/F33Y/L180Q/S129P/T187R); assay type: binding
DRB1*0802 = DRB1*0802 (Homo sapiens, UniProt P01903+P01911, A100R/A103L/A169T/F76Y/H45Y/I96F/K41T/L162R/M171V/P40S/Q125H/Q178H/Q39Y/Q99D/R218S/R42G/S66Y/V115G/W38E)

SMILES: CC[C@H](C)[C@H](N)C(=O)N[C@H](C(=O)N[C@@H](Cc1ccc(O)cc1)C(=O)N[C@@H](CCCNC(=N)N)C(=O)N[C@@H](CC(=O)O)C(=O)NCC(=O)N[C@@H](CC(N)=O)C(=O)N1CCC[C@H]1C(=O)N[C@@H](Cc1ccc(O)cc1)C(=O)O)C(C)C [Peptide 78.0272]
- IC50 (HLA-A3.2 (A*0301)): 76 nM
- IC50 (A*6801): 3760 nM
- IC50 (A31 (A*3101)): > 20000 nM
- IC50 (A*3301): > 20000 nM

SMILES: CC(C)C[C@H](NC(=O)[C@@H](NC(=O)[C@@H](N)[C@@H](C)O)[C@@H](C)O)C(=O)N[C@@H](CCC(=O)O)C(=O)N[C@@H](CCC(N)=O)C(=O)N[C@@H](CCC(N)=O)C(=O)N[C@@H](Cc1ccc(O)cc1)C(=O)N[C@@H](CC(N)=O)C(=O)N[C@@H](CCCCN)C(=O)O [Peptide 78.0273]
- IC50 (HLA-A3.2 (A*0301)): 816 nM
- IC50 (HLA-A11 (A*1101)): 26 nM
- IC50 (A*6801): 203 nM
- IC50 (A*3301): 1350 nM

SMILES: CC[C@H](C)[C@H](NC(=O)[C@H](CC(C)C)NC(=O)[C@@H](N)Cc1ccc(O)cc1)C(=O)N[C@@H](Cc1c[nH]cn1)C(=O)N[C@H](C(=O)N1CCC[C@H]1C(=O)N[C@@H](CS)C(=O)N[C@@H](CS)C(=O)N[C@@H](CCC(=O)O)C(=O)N[C@@H](CS)C(=O)N[C@@H](CCCCN)C(=O)O)C(C)C [Peptide 86.0032]
- IC50 (HLA-A3.2 (A*0301); read-out: A*0301, Table 14, binding to A*0301): 1750 nM
- IC50 (A*6801; read-out: A*6801): 177 nM
- IC50 (A31 (A*3101); read-out: A*3101): 33000 nM
- IC50 (A*3301; read-out: A*3301): 8070 nM

SMILES: CC[C@H](C)[C@H](NC(=O)[C@H](CC(C)C)NC(=O)[C@@H](N)C(C)C)C(=O)N[C@@H](CC(C)C)C(=O)N[C@@H](C)C(=O)N[C@@H](CC(C)C)C(=O)N[C@@H](CC(C)C)C(=O)N[C@@H](CCCNC(=N)N)C(=O)N[C@@H](Cc1ccc(O)cc1)C(=O)N[C@@H](CCCCN)C(=O)O [Peptide 88.0144]
- IC50 (A31 (A*3101)): 285 nM

SMILES: CC(C)C[C@H](NC(=O)[C@H](C)NC(=O)[C@@H](N)Cc1c[nH]cn1)C(=O)N[C@@H](Cc1ccccc1)C(=O)N[C@H](C(=O)N[C@@H](C)C(=O)N[C@@H](CCC(N)=O)C(=O)N[C@@H](CCC(=O)O)C(=O)N[C@@H](C)C(=O)N[C@@H](CCCCN)C(=O)N[C@@H](CCC(N)=O)C(=O)N[C@@H](Cc1c[nH]cn1)C(=O)N[C@@H](CCCNC(=N)N)C(=O)N[C@@H](CC(=O)O)C(=O)N[C@@H](C)C(=O)O)[C@@H](C)O [Peptide 89.0001]
- IC50 (DRB1*0802): 14200 nM

SMILES: CC[C@H](C)[C@H](NC(=O)[C@H](CC(N)=O)NC(=O)[C@@H](NC(=O)[C@@H](NC(=O)[C@H](CC(C)C)NC(=O)[C@H](CC(C)C)NC(=O)[C@@H](NC(=O)[C@@H]1CCCN1C(=O)[C@@H]1CCCN1C(=O)[C@H](CS)NC(=O)[C@H](CCCCN)NC(=O)[C@H](CC(C)C)NC(=O)[C@H](CCC(N)=O)NC(=O)[C@@H](NC(=O)[C@@H](N)CC(C)C)[C@@H](C)CC)[C@@H](C)CC)[C@@H](C)O)[C@@H](C)O)C(=O)O [Peptide 89.0038]
- IC50 (DRB1*0802): 1170 nM

SMILES: CC[C@H](C)[C@H](NC(=O)[C@H](Cc1c[nH]c2ccccc12)NC(=O)[C@H](CCC(=O)O)NC(=O)[C@@H]1CCCN1C(=O)[C@@H](N)[C@@H](C)O)C(=O)N[C@@H](CCC(=O)O)C(=O)N[C@@H](CCCNC(=N)N)C(=O)N[C@@H](CCC(N)=O)C(=O)N[C@H](C(=O)N[C@H](C(=O)N[C@@H](CC(C)C)C(=O)N[C@@H](CCC(N)=O)C(=O)N[C@@H](Cc1c[nH]cn1)C(=O)N[C@@H](CO)C(=O)N[C@@H](Cc1ccccc1)C(=O)O)C(C)C)[C@@H](C)O [Peptide 89.0048]
- IC50 (DRB1*0802): 2360 nM

SMILES: CC[C@H](C)[C@H](NC(=O)[C@H](Cc1c[nH]c2ccccc12)NC(=O)[C@H](CCC(=O)O)NC(=O)[C@@H]1CCCN1)C(=O)N[C@@H](CC(=O)O)C(=O)N[C@@H](CCCNC(=N)N)C(=O)N[C@@H](CC(C)C)C(=O)N[C@H](C(=O)N[C@H](C(=O)N[C@@H](CC(C)C)C(=O)N[C@@H](CCC(N)=O)C(=O)N[C@@H](Cc1c[nH]cn1)C(=O)N[C@@H](CO)C(=O)N[C@@H](Cc1ccccc1)C(=O)N[C@@H](CC(N)=O)C(=O)O)C(C)C)[C@@H](C)O [Peptide 89.0070]
- IC50 (DRB1*0802): 3510 nM

SMILES: CC[C@H](C)[C@H](NC(=O)[C@@H](NC(=O)[C@H](CCC(N)=O)NC(=O)CN)C(C)C)C(=O)N[C@H](C(=O)N[C@@H](CS)C(=O)N1CCC[C@H]1C(=O)N[C@@H](C)C(=O)N[C@@H](CO)C(=O)N[C@H](C(=O)N[C@@H](CO)C(=O)N[C@@H](CO)C(=O)N[C@@H](CC(N)=O)C(=O)N[C@@H](CCC(=O)O)C(=O)N[C@H](C(=O)O)C(C)C)C(C)C)C(C)C [Peptide 90.0016]
- IC50 (DRB1*0802): 13100 nM

SMILES: CC(C)C[C@H](NC(=O)[C@@H](NC(=O)[C@H](Cc1c[nH]cn1)NC(=O)[C@H](CC(C)C)NC(=O)[C@@H](NC(=O)[C@H](CCC(N)=O)NC(=O)[C@H](C)NC(=O)[C@H](CC(=O)O)NC(=O)[C@H](CC(N)=O)NC(=O)[C@H](Cc1c[nH]cn1)NC(=O)[C@@H](NC(=O)[C@H](CCC(=O)O)NC(=O)[C@H](CCC(N)=O)NC(=O)[C@H](C)N)C(C)C)C(C)C)C(C)C)C(=O)N[C@@H](CCCCN)C(=O)O [Peptide 90.0047]
- IC50 (DRB1*0802): 9340 nM

SMILES: CC[C@H](C)[C@H](NC(=O)[C@@H](NC(=O)[C@H](C)NC(=O)[C@H](CCC(=O)O)NC(=O)[C@@H](NC(=O)[C@H](CCC(=O)O)NC(=O)[C@H](Cc1ccccc1)NC(=O)[C@H](Cc1c[nH]c2ccccc12)NC(=O)CNC(=O)[C@@H](N)[C@@H](C)O)C(C)C)C(C)C)C(=O)N[C@@H](CCC(=O)O)C(=O)N[C@@H](CCCNC(=N)N)C(=O)N[C@@H](CCCNC(=N)N)C(=O)N[C@H](C(=O)NCC(=O)O)[C@@H](C)O [Peptide 90.0075]
- IC50 (DRB1*0802): 9320 nM

SMILES: C[C@H](NC(=O)[C@H](CC(=O)O)NC(=O)[C@H](CCC(=O)O)NC(=O)[C@H](CCCCN)NC(=O)[C@H](Cc1ccccc1)NC(=O)[C@H](Cc1ccc(O)cc1)NC(=O)[C@H](CCCCN)NC(=O)[C@H](Cc1ccccc1)NC(=O)[C@@H](N)Cc1ccc(O)cc1)C(=O)N[C@@H](CCCCN)C(=O)N[C@@H](CCCCN)C(=O)N[C@@H](Cc1ccc(O)cc1)C(=O)N[C@@H](CO)C(=O)N[C@@H](CCCCN)C(=O)N[C@H](C(=O)O)[C@@H](C)O [Peptide 90.0253]
- IC50 (DRB1*0802): 569 nM

SMILES: CC[C@H](C)[C@H](NC(=O)[C@H](CCCCN)NC(=O)[C@@H](NC(=O)[C@@H](NC(=O)[C@@H](N)C(C)C)[C@@H](C)O)[C@@H](C)CC)C(=O)NCC(=O)NCC(=O)N[C@@H](CCC(N)=O)C(=O)N[C@@H](CC(C)C)C(=O)N[C@@H](CCCNC(=N)N)C(=O)O [Peptide 1516.01]
- IC50 (HLA-A11 (A*1101)): 64 nM
- IC50 (A*6801): 31 nM
- IC50 (A31 (A*3101)): 58 nM
- IC50 (A*3301): 6020 nM

SMILES: CC(C)C[C@H](NC(=O)[C@H](CC(C)C)NC(=O)[C@H](CS)NC(=O)[C@@H](NC(=O)[C@@H](N)CCCNC(=N)N)C(C)C)C(=O)N[C@@H](Cc1ccccc1)C(=O)N[C@@H](Cc1ccc(O)cc1)C(=O)N[C@@H](CO)C(=O)N[C@@H](CCCCN)C(=O)N[C@H](C(=O)N[C@@H](CCCNC(=N)N)C(=O)N[C@@H](CCCCN)C(=O)N[C@@H](Cc1ccc(O)cc1)C(=O)N[C@@H](CCCNC(=N)N)C(=O)N[C@@H](Cc1ccc(O)cc1)C(=O)O)C(C)C [Peptide 1543.54]
- IC50 (DRB1*0802): 269 nM

SMILES: CC(C)C[C@H](NC(=O)[C@H](Cc1c[nH]cn1)NC(=O)[C@H](CO)NC(=O)[C@H](CO)NC(=O)[C@H](Cc1c[nH]cn1)NC(=O)[C@@H](NC(=O)[C@@H](N)CCCNC(=N)N)[C@@H](C)O)C(=O)N[C@@H](CCCCN)C(=O)N[C@@H](CO)C(=O)N[C@@H](CCCCN)C(=O)N[C@@H](CCCCN)C(=O)O [Peptide 1556.76]
- IC50 (A31 (A*3101)): 195 nM

SMILES: CC[C@H](C)[C@H](NC(=O)[C@H](CC(C)C)NC(=O)[C@H](C)NC(=O)[C@@H](NC(=O)[C@H](CC(C)C)NC(=O)[C@H](C)NC(=O)[C@@H](N)CC(C)C)[C@@H](C)O)C(=O)N[C@@H](CCCCN)C(=O)N1CCC[C@H]1C(=O)N[C@@H](CCCCN)C(=O)O [Peptide 9017.0227]
- IC50 (A31 (A*3101)): 1170 nM
